Measured values as given in patent US7605227B2, “Melanoma antigen peptide analogues” (MannKind Corporation, priority 2005, dated 2009).

Tested on: splenocytes stimulated with wild-type peptide NY-ESO-1157-165
Test: NY-ESO-1 boost, ex vivo IFN-gamma production by splenocytes (ELISA)
Format: in vivo, mice
Conditions: 10 μM wild-type peptide, 3 and 6 days
Description: Supernatants were harvested and the concentration of IFN-γ measured by ELISA.

C165V: NY-ESO-1 157-165 analog with V for C at position 165 (SLLMWITQV; UniProt P78358 157-165, looked up, variant C165V) [Peptide C165V, reference compound]
IFN-gamma production upon ex vivo re-stimulation, in words: failed to induce increased capability of T cells to produce IFN-γ
